This note sets out measurements from patent EP1903056A2, “HLA-A1, -A2 -A3, -A24, -B7, and -B44 tumor associated antigen peptides and compositions” (priority 2002, dated 2004).

Amino acid sequences for entries named in this document (tags omitted). A change or cut given only in a name is not applied to a line headed by its entry.
UniProt P01889: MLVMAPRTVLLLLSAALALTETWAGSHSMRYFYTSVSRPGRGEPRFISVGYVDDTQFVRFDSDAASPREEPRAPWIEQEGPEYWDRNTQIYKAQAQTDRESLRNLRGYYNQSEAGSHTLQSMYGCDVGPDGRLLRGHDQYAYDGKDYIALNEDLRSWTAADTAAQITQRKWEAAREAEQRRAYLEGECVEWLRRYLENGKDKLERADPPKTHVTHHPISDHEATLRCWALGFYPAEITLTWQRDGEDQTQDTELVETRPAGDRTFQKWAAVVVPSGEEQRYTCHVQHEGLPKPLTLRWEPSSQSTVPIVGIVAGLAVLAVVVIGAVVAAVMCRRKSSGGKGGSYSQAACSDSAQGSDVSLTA

pIC50: −log10 of the molar value. Like-named read-outs stand apart in the source and are kept apart here.

The target in one experiment is B*4402 (Homo sapiens, UniProt P01889, A223V/A65T/A93T/A95T/D201E/D98Y/E176V/E187L/E204Q/E69K/G107R/H137Y/K202T/L105A/L119I/N104T/N87E/Q56L/Q94N/R106L/R155S/R180D/S101N/S121R/S35A/S48T/T118I/V36M/W191S/Y140D/Y91S). As to the kind of experiment: B44 supertype peptide binding, B*4402. The following applies: read-out: B* 4402.
The target in a further experiment is B*4501 (Homo sapiens, UniProt P01889, A329T/A65T/A93T/A95T/C349S/D138N/D201E/D98Y/E176V/E187L/E204Q/E69K/H137Y/K202T/L119W/N87E/Q56L/Q94N/R155S/R180D/S121R/S35A/S48T/V127L/V306I/V36M/W191S/Y140L/Y33H/Y91S). As to the kind of experiment: B44 supertype peptide binding, B*4501. Conditions: read-out: B* 4501.
A further experiment addresses B*4001(B60) (Homo sapiens, UniProt P01889, A65T/A93T/A95T/D138N/D98Y/E176V/E69K/N87E/Q56L/Q94N/R180L/S121R/S35A/S48T/T167S/V36M/W171L/Y33H/Y91S). Nature of the experiment: B44 supertype peptide binding, B*4001. Conditions: read-out: B* 4001.
Where [1] appears, read: CEA-derived B44 peptides, binding affinity, unit inferred.
Setting [2] is: HER 2/neu-derived B44 peptides, Table 27.
[3] abbreviates: Table 29: MAGE2-derived B44 peptides.

Regarding `CC(C)[C@H](N)C(=O)N[C@@H](CCC(=O)O)C(=O)N[C@@H](CC(=O)O)C(=O)N[C@@H](CCCCN)C(=O)N[C@@H](CC(=O)O)C(=O)N[C@@H](C)C(=O)N[C@H](C(=O)N[C@@H](C)C(=O)N[C@@H](Cc1ccccc1)C(=O)O)C(C)C` [compound 398], the pIC50 is 6.02 on B*4402 (setting [1]) and < 5.00 at B*4501 (setting [1]).
On to `CC(C)C[C@H](NC(=O)[C@H](C)NC(=O)[C@@H](NC(=O)[C@H](C)NC(=O)[C@H](CC(=O)O)NC(=O)[C@H](CCC(=O)O)NC(=O)[C@H](CC(=O)O)NC(=O)[C@H](CCC(=O)O)NC(=O)[C@@H](N)C(C)C)C(C)C)C(=O)O` [compound 400], for which, at B*4501 (setting [1]), the pIC50 is < 5.00.
Consider `CC[C@H](C)[C@H](NC(=O)[C@H](CO)NC(=O)[C@@H]1CCCN1C(=O)[C@H](CCCCN)NC(=O)[C@@H]1CCCN1C(=O)[C@H](CC(C)C)NC(=O)[C@H](CCC(=O)O)NC(=O)[C@H](C)N)C(=O)O` [compound 403], for which the pIC50 on B*4402 (setting [1]) is 6.02.
On the same count and under the same terms, under `C[C@H](NC(=O)[C@H](CCC(=O)O)NC(=O)[C@@H]1CCCN1)C(=O)N[C@@H](CCC(N)=O)C(=O)N[C@@H](CC(N)=O)C(=O)N[C@H](C(=O)N[C@H](C(=O)N[C@@H](Cc1ccc(O)cc1)C(=O)O)[C@@H](C)O)[C@@H](C)O` [compound 404] stands < 5.00.
With `CC[C@H](C)[C@H](NC(=O)[C@H](CCC(=O)O)NC(=O)[C@@H](N)CCCCN)C(=O)N[C@@H](CC(C)C)C(=O)N[C@@H](CC(=O)O)C(=O)N[C@@H](CCC(=O)O)C(=O)N[C@@H](C)C(=O)N[C@@H](Cc1ccc(O)cc1)C(=O)N[C@H](C(=O)N[C@@H](CCSC)C(=O)O)C(C)C` [compound 436], the pIC50 is 7.46 on B*4402 (setting [2]) and 6.63 at B*4501 (setting [2]).
For `CC(C)C[C@H](NC(=O)CNC(=O)[C@H](CC(C)C)NC(=O)[C@H](Cc1ccc(O)cc1)NC(=O)[C@H](CCC(=O)O)NC(=O)[C@@H]1CCCN1C(=O)[C@H](CC(N)=O)NC(=O)[C@H](CCC(=O)O)NC(=O)[C@H](C)N)C(=O)O` [compound 439], the figures for the pIC50 on B*4402 (setting [2]) and on B*4001(B60) (setting [2]) were 7.35 and 8.66, respectively.
On to `CC[C@H](C)[C@H](NC(=O)[C@H](CCCCN)NC(=O)[C@H](CCCCN)NC(=O)[C@H](CS)NC(=O)CNC(=O)[C@H](C)NC(=O)[C@H](Cc1ccccc1)NC(=O)[C@H](CCC(=O)O)NC(=O)[C@@H](N)CCC(N)=O)C(=O)N[C@@H](Cc1ccccc1)C(=O)NCC(=O)O` [compound 441], for which the pIC50 on B*4001(B60) (setting [2]) was 6.37.
For the molecule `CC(C)C[C@H](NC(=O)[C@H](C)NC(=O)[C@H](CC(C)C)NC(=O)CNC(=O)[C@H](CO)NC(=O)CNC(=O)[C@H](CC(C)C)NC(=O)[C@H](CCC(=O)O)NC(=O)[C@@H](N)CCCNC(=N)N)C(=O)O` [compound 456], on B*4402 (setting [2]), the pIC50 is 6.33.
As for `CC[C@H](C)[C@H](NC(=O)[C@H](CC(C)C)NC(=O)[C@H](C)NC(=O)[C@H](CC(C)C)NC(=O)CNC(=O)[C@H](CO)NC(=O)CNC(=O)[C@H](CC(C)C)NC(=O)[C@H](CCC(=O)O)NC(=O)[C@@H](N)CCCNC(=N)N)C(=O)O` [compound 457], at B*4501 (setting [2]), the pIC50 is 6.49.
The same measure, in the same setting: then `CC(C)C[C@H](NC(=O)[C@@H]1CCCN1C(=O)[C@H](CCC(=O)O)NC(=O)[C@@H](NC(=O)[C@H](CC(C)C)NC(=O)[C@H](CCC(=O)O)NC(=O)[C@@H](NC(=O)[C@H](CCC(=O)O)NC(=O)[C@@H](N)CCC(N)=O)[C@@H](C)O)C(C)C)C(=O)O` [compound 462], with 5.91; and `CC[C@H](C)[C@H](NC(=O)[C@H](CCC(=O)O)NC(=O)[C@@H](N)[C@@H](C)O)C(=O)N[C@@H](CC(C)C)C(=O)N[C@@H](CCCCN)C(=O)NCC(=O)NCC(=O)N[C@H](C(=O)N[C@@H](CC(C)C)C(=O)O)C(C)C` [compound 476], with 5.61.
On to `CC(C)C[C@H](NC(=O)[C@H](CO)NC(=O)[C@H](CCC(N)=O)NC(=O)[C@H](CS)NC(=O)[C@H](CC(=O)O)NC(=O)[C@H](CCC(=O)O)NC(=O)[C@H](CO)NC(=O)[C@H](CO)NC(=O)[C@H](CCC(=O)O)NC(=O)CN)C(=O)O` [compound 478], for which the pIC50 at B*4501 (setting [2]) is 5.60.
Turning to `CC(C)[C@H](NC(=O)[C@H](C)NC(=O)[C@H](CCCNC(=N)N)NC(=O)[C@@H](NC(=O)[C@H](CCC(=O)O)NC(=O)[C@@H](N)CCCNC(=N)N)C(C)C)C(=O)N[C@H](C(=O)N[C@@H](CO)C(=O)N[C@@H](C)C(=O)O)[C@@H](C)O` [compound 481], the pIC50 on B*4402 (setting [2]) was 5.50.
On to `CC(C)C[C@H](NC(=O)[C@@H]1CCCN1C(=O)CNC(=O)[C@H](CCC(=O)O)NC(=O)[C@@H](N)CCCNC(=N)N)C(=O)N1CCC[C@H]1C(=O)N[C@@H](C)C(=O)N[C@@H](C)C(=O)N[C@@H](CCCNC(=N)N)C(=O)N1CCC[C@H]1C(=O)N[C@@H](C)C(=O)O` [compound 500], for which the pIC50 on B*4501 (setting [2]) is 6.46.
Still for that read-out and setting: then `CC[C@H](C)[C@H](NC(=O)[C@H](CCC(=O)O)NC(=O)[C@@H](NC(=O)[C@H](CC(C)C)NC(=O)[C@H](CO)NC(=O)[C@H](CCCNC(=N)N)NC(=O)[C@H](CC(C)C)NC(=O)[C@H](CCC(N)=O)NC(=O)[C@H](CC(C)C)NC(=O)[C@H](CCC(=O)O)NC(=O)[C@@H](N)CCCNC(=N)N)[C@@H](C)O)C(=O)N[C@@H](CC(C)C)C(=O)O` [compound 501], with 6.06.
In the case of `CC(C)C[C@H](NC(=O)[C@H](CO)NC(=O)[C@H](CCC(N)=O)NC(=O)[C@H](CS)NC(=O)[C@H](CC(=O)O)NC(=O)[C@H](CCC(=O)O)NC(=O)[C@H](CO)NC(=O)[C@H](CO)NC(=O)[C@H](CCC(=O)O)NC(=O)CN)C(=O)N[C@H](C(=O)O)[C@@H](C)O` [compound 502], at B*4402 (setting [2]), the pIC50 is 4.84.
Same read-out and setting: then `CC[C@H](C)[C@H](NC(=O)[C@@H]1CCCN1C(=O)[C@@H]1CCCN1C(=O)[C@H](CCC(N)=O)NC(=O)[C@@H]1CCCN1C(=O)[C@H](CC(C)C)NC(=O)[C@H](CCCNC(=N)N)NC(=O)[C@H](CCC(=O)O)NC(=O)CN)C(=O)N[C@@H](CS)C(=O)N[C@H](C(=O)O)[C@@H](C)O` [compound 521], with 5.04.
In the case of `CC(C)C[C@H](NC(=O)[C@H](CCC(=O)O)NC(=O)[C@H](CCCNC(=N)N)NC(=O)[C@H](Cc1ccccc1)NC(=O)[C@H](CCCNC(=N)N)NC(=O)[C@@H]1CCCN1C(=O)[C@H](CCCNC(=N)N)NC(=O)[C@H](CS)NC(=O)[C@H](CCC(=O)O)NC(=O)[C@@H](N)CO)C(=O)N[C@H](C(=O)O)C(C)C` [compound 522], the pIC50 on B*4402 (setting [2]) is 6.03; at B*4001(B60) (setting [2]) it was 5.43.
As to `CC[C@H](C)[C@H](NC(=O)[C@H](CCC(=O)O)NC(=O)[C@H](CCC(=O)O)NC(=O)[C@@H](N)CC(C)C)C(=O)N[C@H](C(=O)NCC(=O)N[C@@H](Cc1ccc(O)cc1)C(=O)N[C@@H](CC(C)C)C(=O)O)[C@@H](C)O` [compound 527], the pIC50 at B*4402 (setting [2]) was 5.09.
`CC(C)C[C@H](NC(=O)[C@@H]1CCCN1C(=O)[C@H](CCC(=O)O)NC(=O)[C@@H](NC(=O)[C@H](CC(C)C)NC(=O)[C@H](CCC(=O)O)NC(=O)[C@@H](N)[C@@H](C)O)C(C)C)C(=O)O` [compound 529]: the pIC50 on B*4402 (setting [2]) is 5.05; on B*4001(B60) (setting [2]) it was 4.85.
Turning to `CC(C)C[C@H](NC(=O)[C@H](Cc1ccc(O)cc1)NC(=O)[C@H](CCC(=O)O)NC(=O)[C@@H](N)CO)C(=O)N[C@@H](CCC(N)=O)C(=O)N[C@@H](CC(C)C)C(=O)N[C@H](C(=O)N[C@@H](Cc1ccccc1)C(=O)NCC(=O)O)C(C)C` [compound 649], the pIC50 is 6.46 at B*4402 (setting [3]) and 6.63 on B*4001(B60) (setting [3]).
Regarding `CSCC[C@H](NC(=O)[C@H](CCCNC(=N)N)NC(=O)[C@@H]1CCCN1C(=O)CNC(=O)[C@H](CCC(=O)O)NC(=O)[C@@H](N)CCC(=O)O)C(=O)N[C@@H](Cc1ccccc1)C(=O)N1CCC[C@H]1C(=O)N[C@@H](CC(=O)O)C(=O)N[C@@H](CC(C)C)C(=O)O` [compound 657], the pIC50 at B*4402 (setting [3]) is 6.54.
Turning to `CC(C)C[C@H](NC(=O)[C@@H](NC(=O)[C@H](CO)NC(=O)[C@H](CO)NC(=O)[C@H](CO)NC(=O)[C@H](CO)NC(=O)[C@H](C)NC(=O)[C@@H](NC(=O)[C@H](CCC(N)=O)NC(=O)[C@H](CCC(N)=O)NC(=O)[C@H](CCC(=O)O)NC(=O)[C@@H](N)CCC(=O)O)[C@@H](C)O)[C@@H](C)O)C(=O)O` [compound 686], on B*4001(B60) (setting [3]), the pIC50 is 6.52.
With `CC[C@H](C)[C@H](NC(=O)[C@@H]1CCCN1C(=O)[C@@H](NC(=O)[C@@H](NC(=O)[C@H](CCC(=O)O)NC(=O)[C@@H](N)C(C)C)C(C)C)C(C)C)C(=O)N[C@@H](CO)C(=O)N[C@@H](Cc1c[nH]cn1)C(=O)N[C@@H](CC(C)C)C(=O)N[C@@H](Cc1ccc(O)cc1)C(=O)O` [compound 692], the pIC50 on B*4501 (setting [3]) is 5.17.
With `CC(C)[C@H](NC(=O)[C@H](CO)NC(=O)[C@H](CC(=O)O)NC(=O)[C@H](CCC(=O)O)NC(=O)[C@H](CCCNC(=N)N)NC(=O)CNC(=O)[C@H](CCC(=O)O)NC(=O)[C@@H](N)Cc1ccccc1)C(=O)N[C@@H](Cc1ccccc1)C(=O)O` [compound 693], on B*4402 (setting [3]), the pIC50 was 5.35.
Regarding `CC(C)C[C@H](NC(=O)[C@@H](NC(=O)[C@@H](NC(=O)[C@H](CCC(=O)O)NC(=O)[C@@H](N)C(C)C)C(C)C)[C@@H](C)O)C(=O)NCC(=O)N[C@@H](CCC(=O)O)C(=O)N[C@H](C(=O)N1CCC[C@H]1C(=O)N[C@@H](C)C(=O)N[C@@H](C)C(=O)O)C(C)C` [compound 696], the pIC50 on B*4402 (setting [3]) and at B*4001(B60) (setting [3]) was < 5.00 each time.
